From US6465614B1, “High-affinity response-selective C-terminal analogs of C5a anaphylatoxin” (priority 1994, dated 2002)

Molecular target: T1, human neutrophils (PMN) (Homo sapiens, UniProt P21730)
T1 sequence (P21730 1-350): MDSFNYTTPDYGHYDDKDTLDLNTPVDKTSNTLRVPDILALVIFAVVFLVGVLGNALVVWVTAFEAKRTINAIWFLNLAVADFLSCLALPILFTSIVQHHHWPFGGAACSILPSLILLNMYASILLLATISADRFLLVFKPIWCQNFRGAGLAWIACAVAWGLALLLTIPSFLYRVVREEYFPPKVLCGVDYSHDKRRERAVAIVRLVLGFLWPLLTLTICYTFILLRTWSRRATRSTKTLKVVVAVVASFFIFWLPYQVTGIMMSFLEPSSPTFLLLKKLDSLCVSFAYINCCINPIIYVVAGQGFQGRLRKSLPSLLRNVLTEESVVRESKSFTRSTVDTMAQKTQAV
Assay type: cell-based
Procedure: The release of glucuronidase from human neutrophils was determined as described by Schroder et al. (1987), J. Immunol., 139: 3474-3483. Briefly, human neutrophils were pretreated with cytochalasin B (5 μg/ml, 10 min, 37° C.). The cells (10^6) were incubated in the presence of stimulants for 60 minutes at 37° C. in a final volume of 200 μl and then centrifuged. The supernatant was collected and 50 μl were incubated with 50 μl of 0.01 M P-nitrophenyl-β-D-glucuronide (in 0.1 M sodium acetate at pH 4 for 18 h) as triplicate determinations in 96-well microtiter plates (Corning). The reaction was stopped by addition of 100 μl of 0.4 M gly buffer at pH 10. The reaction developed color that was read at 405 nm in a Titertec Multiscan (MCC/340) ELISA reader. The β-glucuronidase released was expressed as the percentage of total enzyme in the cell that could be released by addition of 0.2% Triton X-100 (Pierce).

Work on `CC[C@H](C)[C@H](N)C(=O)N[C@@H](CO)C(=O)N[C@@H](Cc1ccccc1)C(=O)N[C@@H](CCCCN)C(=O)N[C@@H](CC(=O)O)C(=O)N[C@@H](CCSC)C(=O)N[C@@H](CCC(N)=O)C(=O)N[C@@H](CC(C)C)C(=O)NCC(=O)N[C@@H](CCCNC(=N)N)C(=O)O` [peptide 1] yielded an EC50 of 67.7 µM.
